“And” between values parts separate entries of the source, which are not always exact repeats. Equal entries are not always repeated.
Assays:
Nociceptin receptor = Nociceptin receptor (Homo sapiens, UniProt P41146); assay: Binding Assay: The compounds were examined with membranes of recombinant CHO-ORL 1 cells in a receptor binding assay with 3H-nociceptin/orphanin FQ. This test system was conducted in accordance with the method outlined by Ardati et al. (Mol. Pharmacol., 51, 1997, pp. 816-824). The concentration of 3H-nociceptin/orphanin FQ amounted to 0.5 nM in these tests. The binding assays were conducted in eac
Mu-type opioid receptor = Mu-type opioid receptor (Homo sapiens, UniProt P35372); assay: Binding Assay: The affinity to the human μ-opiate receptor was determined in a homogeneous preparation in microtiter plates. For this, dilution series of the respective compound to be tested were incubated for 90 minutes at room temperature with a receptor membrane preparation (15-40 mg of protein per 250 μl of incubation batch) of CHO-K 1 cells, which express the human μ-opiate receptor (RB-HOM r
[1] = target: Kappa-type opioid receptor (Homo sapiens, UniProt P41145); assay: Binding Assay: The determination occurred in a homogeneous batch in microtiter plates. For this, dilution series of the respective substances to be tested were incubated for 90 minutes at room temperature with a receptor membrane preparation (7 μg of protein per 250 μl of incubation batch) of CHO-K 1 cells, which express the human κ-opiate receptor, in the presence of 1 nmol/l of the radioactive l

Amino acid sequences for entries named in this document (tags omitted). A change or cut given only in a name is not applied to a line headed by its entry.
UniProt P41146: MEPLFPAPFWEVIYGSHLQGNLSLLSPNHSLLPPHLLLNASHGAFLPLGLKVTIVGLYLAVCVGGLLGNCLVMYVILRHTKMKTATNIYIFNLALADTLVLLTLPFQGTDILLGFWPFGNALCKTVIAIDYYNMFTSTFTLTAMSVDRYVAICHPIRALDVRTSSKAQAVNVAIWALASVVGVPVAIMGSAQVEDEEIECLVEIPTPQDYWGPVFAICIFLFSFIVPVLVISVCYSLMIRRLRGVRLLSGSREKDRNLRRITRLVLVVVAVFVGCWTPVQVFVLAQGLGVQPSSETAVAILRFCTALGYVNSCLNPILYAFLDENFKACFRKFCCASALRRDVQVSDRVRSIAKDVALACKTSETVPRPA
UniProt P35372, whole entry, looked up: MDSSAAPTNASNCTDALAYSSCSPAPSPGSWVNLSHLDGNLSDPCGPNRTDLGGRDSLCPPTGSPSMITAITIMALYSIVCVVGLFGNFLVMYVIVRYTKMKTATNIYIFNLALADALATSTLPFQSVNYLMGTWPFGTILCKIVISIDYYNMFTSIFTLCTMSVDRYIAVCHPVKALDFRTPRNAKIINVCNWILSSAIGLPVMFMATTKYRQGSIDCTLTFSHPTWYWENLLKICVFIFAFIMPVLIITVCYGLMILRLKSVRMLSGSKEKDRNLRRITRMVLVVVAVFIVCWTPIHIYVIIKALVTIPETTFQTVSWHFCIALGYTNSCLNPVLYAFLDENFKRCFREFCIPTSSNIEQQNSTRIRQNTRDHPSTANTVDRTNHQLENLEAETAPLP
UniProt P41145: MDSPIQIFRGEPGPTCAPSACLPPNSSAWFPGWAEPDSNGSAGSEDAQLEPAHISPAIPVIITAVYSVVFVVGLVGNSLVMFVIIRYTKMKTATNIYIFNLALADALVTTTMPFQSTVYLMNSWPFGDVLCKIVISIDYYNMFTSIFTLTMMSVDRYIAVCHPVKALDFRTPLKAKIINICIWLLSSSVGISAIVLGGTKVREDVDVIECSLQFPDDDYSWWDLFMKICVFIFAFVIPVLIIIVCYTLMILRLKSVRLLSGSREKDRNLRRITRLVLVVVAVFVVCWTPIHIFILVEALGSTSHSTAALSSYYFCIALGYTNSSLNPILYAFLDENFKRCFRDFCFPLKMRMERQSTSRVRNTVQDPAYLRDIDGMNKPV

Row | SMILES | Ki (Nociceptin receptor) | Ki (Mu-type opioid receptor) | Ki [1] [nM]
1 | COc1ccc(Oc2nc(Oc3ccc(OC)cc3)nc(N(C)C3(c4ccccc4)CCC(c4ccccc4)(N(C)C)CC3)n2)cc1 (single isomer, unassigned) | 210 nM | 2400 nM | –
2 | CNc1nc(NC)nc(N(C)C2(c3ccccc3)CCC(c3ccccc3)(N(C)C)CC2)n1 (single isomer, unassigned) | 525 nM | – | –
3 | CN(C)C1(c2ccccc2)CCC(c2cccs2)(N(C)C)CC1 (single isomer, unassigned) | 25.5 nM | – | –
4 | CN(C)C1(c2ccccc2)CCC(c2ccccc2)(N(C)C(=O)CCC(=O)O)CC1 (configuration not stated) | – | 9020 nM | –
5 | CNC1(c2ccccc2)CCC(c2ccc(C(F)(F)F)cc2)(N(C)C)CC1 (single isomer, unassigned) | 360 nM | 1190 nM | –
6 | CN(C)C1(c2ccccc2)CCC(c2ccccc2)(N(C)C(=O)c2cccc(C(F)(F)F)c2)CC1 (single isomer, unassigned) | 0.54 nM | 1.2 nM | –
7 | CNC1(c2ccccc2)CCC(c2ccccc2)(N(C)C)CC1 (single isomer, unassigned) | – | 640 nM | –
8 | CNC1(c2ccccc2)CCC(CC2CCCC2)(N(C)C)CC1 (single isomer, unassigned) | 530 nM and 375 nM | – | –
9 | CN(C)C1(c2ccccc2)CCC(O)(c2ccccc2)CC1 (configuration not stated) | – | – | 2240
10 | CN(C)C1(c2ccccc2)CCC(c2ccc(C(F)(F)F)cc2)(N(C)C)CC1 (single isomer, unassigned) | 115 nM and 165 nM | – | –
11 | CN(C)C1(c2ccccc2)CCC(c2ccccc2)(N(C)CCO)CC1 (single isomer, unassigned) | 465 nM | 2900 nM | –
12 | CCNC(=O)N(C)C1(c2ccccc2)CCC(c2ccccc2)(N(C)C)CC1 (single isomer, unassigned) | 95.5 nM and 51 nM | – | –
13 | CN(C)C1(c2ccccc2)CCC(C(=N)c2cc3ccccc3n2C)(N2CCCC2)CC1 (configuration not stated) | 180 nM | 49 nM | –
14 | CNC1(c2[nH]c3ccccc3c2C)CCC(c2cccc(F)c2)(N(C)C)CC1 (configuration not stated) | – | 155 nM | –
15 | CN(C)c1nc(N(C)C)nc(N(C)C2(c3ccccc3)CCC(c3ccccc3)(N(C)C)CC2)n1 (configuration not stated) | 930 nM | 255 nM | –
16 | CN(C)CC1(Cc2ccccc2)CCC(c2ccccc2)(N(C)C)CC1 (configuration not stated) | 1890 nM | 215 nM | –
17 | CN(C)C(=O)CN(C)C1(c2ccccc2)CCC(c2ccccc2)(N(C)C)CC1 (configuration not stated) | 230 nM | 1420 nM and 2600 nM | –
18 | CN(C)C1(c2ccccc2)CCC(c2ccccc2)(N(C)CC(=O)O)CC1 (single isomer, unassigned) | 4010 nM | 10200 nM and 5200 nM | –
19 | CN(C)C1(c2ccccc2)CCC(c2ccccc2)(N(C)C(=O)C(c2ccccc2)c2ccccc2)CC1 (configuration not stated) | – | 18 nM | –
20 | CCCC(=O)OC1(c2[nH]c3ccccc3c2C)CCC(c2cccc(F)c2)(N(C)C)CC1 (configuration not stated) | 108 nM | – | –
21 | CN(C)C1(C(=O)c2cc3ccccc3n2C)CCC(c2ccccc2)(N(C)C)CC1 (single isomer, unassigned) | 940 nM and 635 nM | 70.5 nM | –
22 | CN(C)C1(c2ccccc2)CCC(c2ccccc2)(N(C)C(=O)NCc2ccccc2)CC1 (single isomer, unassigned) | – | 1.5 nM and 2.2 nM | –

Row | SMILES | Ki (Nociceptin receptor) | Ki (Mu-type opioid receptor) | Ki [1] [nM]
23 | Cc1ccc(C2(N(C)C)CCC(O)(c3ccccc3)CC2)cc1 (configuration not stated) | – | – | 1460
24 | CN(C)C1(c2cccc(F)c2)CCC(C)(CNC(=O)/C=C/c2ccccc2)CC1 (single isomer, unassigned) | 1390 nM | 1.8 nM | –
25 | CNC1(c2ccccc2)CCC(c2cccs2)(N(C)C)CC1 (single isomer, unassigned) | 53.5 nM | 555 nM | –
26 | CN(C)C1(c2ccccc2)CCC(c2ccccc2)(N(C)CCCCO)CC1 (configuration not stated) | 18 nM | 415 nM | –
27 | CC(=O)NCC1(C)CCC(c2ccccc2)(N(C)C)CC1 (configuration not stated) | 1170 nM | 140 nM | –
28 | CN(C)C1(c2ccccc2)CCC(c2ccccc2)(N(C)C(=O)/C=C/c2ccccc2)CC1 (single isomer, unassigned) | – | 14.2 nM and 8.05 nM | –
29 | CNC1(c2ccccc2)CCC(c2ccc(OC)cc2)(N(C)C)CC1 (single isomer, unassigned) | 207 nM | 650 nM | –
30 | CN(C)C1(CC2CCCC2)CCC(c2ccccc2)(N(C)C)CC1 (configuration not stated) | 89.5 nM | – | –
31 | CN(C)C1(c2ccccc2)CCC(c2ccccc2)(N(C)C)CC1 (single isomer, unassigned) | 6 nM | 600 nM | –
32 | CN(C)CC1(c2ccccc2)CCC(c2ccccc2)(N(C)C)CC1 (single isomer, unassigned) | 102 nM | 2460 nM | –
33 | CN(C)C1(c2cccc(F)c2)CCC(C)(CNS(=O)(=O)/C=C/c2ccccc2)CC1 (single isomer, unassigned) | 77.5 nM and 48.5 nM | – | –
34 | CNC1(c2ccccc2)CCC(Cc2ccccc2)(CN(C)C)CC1 (configuration not stated) | 3960 nM | 1110 nM | –
35 | CN(C)C1(c2ccccc2)CCC(C(=O)c2cc3ccccc3n2C)(N2CCCC2)CC1 (single isomer, unassigned) | 990 nM | 1160 nM | –
36 | CN(C)C1(c2ccccc2)CCC(c2ccccc2)(N(C)Cc2cccc(F)c2)CC1 (single isomer, unassigned) | – | 39 nM | –
37 | CNc1nc(Oc2ccc(OC)cc2)nc(N(C)C2(c3ccccc3)CCC(c3ccccc3)(N(C)C)CC2)n1 (single isomer, unassigned) | 5.35 nM | 740 nM | –
38 | CN(Cc1c[nH]c2ccccc12)CC1(C)CCC(c2ccccc2)(N(C)C)CC1 (single isomer, unassigned) | 730 nM | 385 nM | –
39 | Cc1c(C2(N(C)C)CCC(c3ccccc3)(N(C)C)CC2)[nH]c2ccccc12 (single isomer, unassigned) | 993 nM | 410 nM | –
40 | CN(C)C1(Cc2ccccc2)CCC(c2ccccc2)(N(C)C)CC1 (single isomer, unassigned) | – | 80.5 nM and 155 nM | –
41 | Cc1c(C2(N3CCCC3)CCC(c3ccccc3)(N(C)C)CC2)[nH]c2ccc(F)cc12 (single isomer, unassigned) | 190 nM | 1580 nM | –
42 | Cc1c(C2(N(C)C)CCC(c3ccccc3)(N(C)C)CC2)[nH]c2ccc(F)cc12 (single isomer, unassigned) | 2050 nM | 255 nM | –
43 | Cc1c(C2(N3CCCCC3)CCC(c3ccccc3)(N(C)C)CC2)[nH]c2ccccc12 (configuration not stated) | 1050 nM | – | –
